Screening results deposited in PubChem by Broad Institute.
RAD52 inh: RAD52 DNA annealing inhibitors, primary screen, biochemical, FRET, single point, set 2; DNA repair protein RAD52 homolog (Homo sapiens), P43351; recombinant RAD52 DNA annealing, FRET fluorescence; inhibition, % at 18.7 µM; 360,000 tested, 0.46% active; AID 651710, 2012;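 active means every replicate showing at least 50% inhibition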
MLL AF4-AF9 inh: inhibitors of AF4 peptide binding to AF9, primary screen, biochemical, AlphaScreen, biotin-AF4 peptide, FLAG-AF9, single point. Protein AF-9 (Homo sapiens), P42568. inhibition, % at 10 µM. 350,000 tested, 0.47% active. AID 651704, 2012;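 active means every replicate reaching a set inhibition limit, whatever the replicate mean, cut at about 25% in these data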;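 further: 0% = plate neutral control median and 100% = total signal loss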
UUG fidelity: alters start codon recognition fidelity in yeast. S. cerevisiae UUG-firefly luciferase reporter, luminescence/redox ratio. AID 602363. activity score, % at 18.7 µM. hit rate 0.13% among 350,000;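 active = replicate mean at a twofold rise or more, about +100% in these data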;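 note: firefly luciferase made from a UUG start codon reports start codon fidelity; reporter light over untreated wells divided by growth signal over untreated wells; some hits fall short of that in this replicate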
RAD54 inh: inhibitors of human RAD54 branch migration, primary screen, biochemical, fluorescence, single point; DNA repair and recombination protein RAD54-like (Homo sapiens), Q92698; RAD54 Holliday junction branch migration, FAM/BHQ fluorescence; inhibition, % at 10.4 µM; 360,000 tested, 0.14% active; AID 602329, 2012;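 active means mean normalized replicate activity at least 40 and at least half of replicates scoring 40 or more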;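 further: 0% = median of neutral control wells and 100% = median of positive control wells; inhibitors cause a drop in the FAM fluorescence signal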
E-sel inducer: E-selectin induction in HUVECs, primary screen, imaging, HUVEC, immunofluorescence imaging, single point. normalized: neutral wells 0, TNF-alpha wells 100. 260,000 tested, 0.37% active. AID 686992, 2013. activation, % at 7.58 µM. P16581;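 active means mean E-selectin-positive cell signal at least 10% of the positive control, reached in at least 60% of replicates, without over 20% cell loss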
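Read-out: % PE-positive cells | Test system: HUVEC | Doses: One compound dose added by pin transfer | Buffer or medium: EGM-2 over gelatin coat | Signal: Immunofluorescence imaging | Benchmarks: TNF-alpha, DMSO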
SIRT5 block: SIRT5 desuccinylase inhibitors, primary screen, biochemical, fluorescence imaging, single point, set 5. NAD-dependent protein deacylase sirtuin-5, mitochondrial (Homo sapiens), Q9NXA8. Purified SirT5, succinyl-peptide AMC, trypsin-coupled fluorescence. inhibition, % at 15 µM. 330,000 tested, 1.1% active. AID 652115, 2013; in the data active means inhibition above about 15%
The depositor's hits bear a star; / = not tested or not shown. Most compounds without a hit are left out; they make up all but 1.8% or so of the library.

| molecule | RAD52 inh | MLL AF4-AF9 inh | UUG fidelity | RAD54 inh | E-sel inducer | SIRT5 block |
| --- | --- | --- | --- | --- | --- | --- |
| C[C@@H]1CN([C@@H](C)CO)C(=O)c2cc(NS(=O)(=O)c3cccs3)ccc2O[C@@H](C)CCCCO[C@H]1CN(C)Cc1ccc(C(F)(F)F)cc1 | -42 | -1 | 6 | -3 | 0 | 15 |
| C[C@H](CO)N1C[C@H](C)[C@@H](CN(C)Cc2ccc(C(F)(F)F)cc2)OCCCC[C@H](C)Oc2ccc(NS(=O)(=O)c3cccs3)cc2C1=O | -25 | 0 | -1 | -7 | 0 | 21* |
| C[C@@H]1CN([C@H](C)CO)C(=O)c2cc(NS(=O)(=O)c3cccs3)ccc2O[C@@H](C)CCCCO[C@@H]1CN(C)Cc1ccc(C(F)(F)F)cc1 | -37 | 0 | 8 | -8 | 0 | 19* |
| O=C(COc1cccc2ccccc12)N1CCN(c2ccccn2)CC1 | -15 | 9 | -8 | 8 | / | 18* |
| O=C(COc1cccc2ccccc12)N1CCN(c2ccccc2)CC1 | / | / | -9 | -25 | / | / |
| COc1cccc(NC(=O)N(C)C[C@@H]2Oc3cc(/C=C/c4ccccc4)ccc3S(=O)(=O)N([C@@H](C)CO)C[C@H]2C)c1 | 7 | -2 | -9 | 2 | 0 | 102* |
| COc1cccc(NC(=O)N(C)C[C@H]2Oc3cc(-c4ccccc4OC)ccc3S(=O)(=O)N([C@H](C)CO)C[C@H]2C)c1 | -39 | 6 | 2 | -14 | 0 | 3 |
| Cc1ccccc1-c1ccc2c(c1)O[C@H](CN(C)C(=O)Nc1ccc(F)cc1)[C@H](C)CN([C@H](C)CO)S2(=O)=O | 12 | 1 | / | -1 | 0 | 16* |
| Cc1ccccc1-c1ccc2c(c1)O[C@H](CN(C)C(=O)Nc1ccc(F)cc1)[C@@H](C)CN([C@@H](C)CO)S2(=O)=O | / | / | / | / | 0 | / |
| C[C@@H]1CN([C@H](C)CO)S(=O)(=O)c2ccc(/C=C/c3ccccc3)cc2O[C@H]1CN(C)C(=O)Nc1cc(F)ccc1F | 26 | 5 | -3 | -4 | 0 | 23* |

An excerpt from above in order of length of the SMILES, low to high:
| molecule | RAD52 inh | MLL AF4-AF9 inh | UUG fidelity | RAD54 inh | E-sel inducer | SIRT5 block |
| --- | --- | --- | --- | --- | --- | --- |
| COc1cccc(NC(=O)N(C)C[C@@H]2Oc3cc(/C=C/c4ccccc4)ccc3S(=O)(=O)N([C@@H](C)CO)C[C@H]2C)c1 | 7 | -2 | -9 | 2 | 0 | 102* |
| C[C@H](CO)N1C[C@H](C)[C@@H](CN(C)Cc2ccc(C(F)(F)F)cc2)OCCCC[C@H](C)Oc2ccc(NS(=O)(=O)c3cccs3)cc2C1=O | -25 | 0 | -1 | -7 | 0 | 21* |
| C[C@@H]1CN([C@H](C)CO)C(=O)c2cc(NS(=O)(=O)c3cccs3)ccc2O[C@@H](C)CCCCO[C@@H]1CN(C)Cc1ccc(C(F)(F)F)cc1 | -37 | 0 | 8 | -8 | 0 | 19* |

The list continues.
| molecule | RAD52 inh | MLL AF4-AF9 inh | UUG fidelity | RAD54 inh | E-sel inducer | SIRT5 block |
| --- | --- | --- | --- | --- | --- | --- |
| COc1cccc(NC(=O)N(C)C[C@@H]2Oc3cc(-c4ccccc4F)ccc3S(=O)(=O)N([C@H](C)CO)C[C@@H]2C)c1 | 26 | 1 | 2 | 3 | / | 17* |
| COc1cccc(S(=O)(=O)Nc2ccc3c(c2)[C@H]2C[C@H](CC(=O)NCc4cccc(F)c4)O[C@@H](CO)[C@H]2O3)c1 | -17 | 0 | 26 | -14 | 0 | 10 |
| COc1ccc(S(=O)(=O)N(C)C[C@H]2Oc3ccc(NS(=O)(=O)c4cccs4)cc3C(=O)N([C@@H](C)CO)C[C@@H]2C)cc1 | -2 | 0 | -3 | -1 | 0 | -1 |
| C[C@@H]1CN([C@@H](C)CO)S(=O)(=O)c2ccc(/C=C/c3ccccc3)cc2O[C@@H]1CN(C)C(=O)Nc1ccc(F)cc1 | -1 | 2 | -25 | -8 | 0 | 17* |
| C[C@H]1CN([C@@H](C)CO)S(=O)(=O)c2ccc(-c3cccc(F)c3)cc2O[C@H]1CN(C)C(=O)Nc1cc(F)ccc1F | 19 | -1 | 10 | 7 | 0 | / |
| COc1cccc(-c2ccc3c(c2)O[C@@H](CN(C)C(=O)c2ccccc2F)[C@H](C)CN([C@H](C)CO)S3(=O)=O)c1 | 37 | / | -2 | -5 | / | 7 |
| C[C@H]1CN([C@@H](C)CO)S(=O)(=O)c2ccc(-c3cccc(F)c3)cc2O[C@@H]1CN(C)C(=O)Nc1cc(F)ccc1F | 8 | 2 | 2 | 4 | 0 | 19* |
| C[C@@H]1CN([C@H](C)CO)S(=O)(=O)c2ccc(/C=C/c3ccccc3)cc2O[C@@H]1CN(C)C(=O)Nc1cc(F)ccc1F | 12 | 1 | 10 | 1 | 1 | 25* |
| C[C@@H]1CN([C@@H](C)CO)S(=O)(=O)c2ccc(/C=C/c3ccccc3)cc2O[C@H]1CN(C)C(=O)Nc1ccc(F)cc1 | 3 | 1 | -11 | 14 | 1 | 14 |
